Source: patent US20120009674A1, “Use of a GSK-3 Inhibitor to Maintain Potency of Cultured Cells” (ABT Holding Company, priority 2005, published 2012)

What was measured:
Oct-3A = details: FIG. 4
Xenopus embryos = details: developing Xenopus embryos; cited from earlier work

For `O=C1Nc2cc(Br)ccc2/C1=C1/Nc2ccccc2/C1=N\O` [BIO, 6-bromoindirubin-3′-oxime], the “active amount of functional Oct-3A compared to MAPCs grown without BIO” value (Oct-3A) is listed as 3 times and the “activity in developmental assays” value (Xenopus embryos) is listed as “mimicked Wnt signaling”.
